A short description of the series: Analytical RP-HPLC retention time on C-18 column as indicator of polarity. The series is classed as physicochemical. To be noted: chromatographic, YMC-Pack ODS-A C18 (5 µm, 120 Å) 150 × 4.6 mm; gradient 5% B 2 min, 5%–100% B 20 min; A 0.1% TFA in water, B 0.1% TFA in acetonitrile/water 80/20; 1 mL/min; UV 220 nm. From the text: Cationic membrane active peptides and their INH-derivatives were synthesized in good yields, using previously described methods. Peptides were characterized with their monoisotopic molecular mass (M), retention time on a C-18 RP-HPLC column (Rt), estimated hydrophilicity values (H) and net charge (z) (see Table 1). Peptides are listed according to their retention times, which are the indicator of their polarity. […] This order of peptides’ polarity is almost equal to the relative hydrophilicity estimated from the amino acid composition. […] That might be the result of decreased charge due to INH coupling at the N-terminal, although the addition of INH molecule is expected to increase the polarity of the conjugate.
Purified peptides were analyzed by RP-HPLC, on an analytical C-18 column, using gradient elution with the abovementioned eluent A and B (flow rate was 1 mL/min, UV detection at λ = 220 nm). Molecular mass of the peptides was determined on a Thermo Scientific Q Exactive™ Focus Hybrid Quadrupole-Orbitrap™ Mass Spectrometer (ThermoFisher Scientific, Waltham, MA, USA).

This is an account of results in paper PMC7139830, “Drug Conjugation Induced Modulation of Structural and Membrane Interaction Features of Cationic Cell-Permeable Peptides” (International Journal of Molecular Sciences, 2020).

“And” between values parts separate entries of the source, which are not always exact repeats. Equal entries are not always repeated. A value given as a limit tells only on which side of the number the result lay.

For Transportan, the “Rt, retention time on C-18 RP-HPLC column (indicator of polarity)” value is > 12 and 16.8.
